Reference: ChEMBL document CHEMBL1134078, “Structure-based design, synthesis and SAR of a novel series of thiopheneamidine urokinase plasminogen activator inhibitors” (Bioorg Med Chem Lett, 2001)

Each compound was assayed against Urokinase-type plasminogen activator (Homo sapiens, UniProt P00749).

| Compound | Ki [nM] |
| --- | --- |
| CSc1sc(C(=N)N)cc1-c1nc(-c2ccccc2)cs1 | 90 |
| CSc1sc(C(=N)N)cc1-c1nc(C)cs1 | 1000 |
| CSc1sc(C(=N)N)cc1-c1nc(-c2cccs2)cs1 | 89000 |
